Our source for the IC50 values is ChEMBL document CHEMBL1221253, “Fragment-based discovery and optimization of BACE1 inhibitors” (Bioorg Med Chem Lett, 2010).

Amino acid sequences for entries named in this document (tags omitted). A change or cut given only in a name is not applied to a line headed by its entry.
UniProt P56817: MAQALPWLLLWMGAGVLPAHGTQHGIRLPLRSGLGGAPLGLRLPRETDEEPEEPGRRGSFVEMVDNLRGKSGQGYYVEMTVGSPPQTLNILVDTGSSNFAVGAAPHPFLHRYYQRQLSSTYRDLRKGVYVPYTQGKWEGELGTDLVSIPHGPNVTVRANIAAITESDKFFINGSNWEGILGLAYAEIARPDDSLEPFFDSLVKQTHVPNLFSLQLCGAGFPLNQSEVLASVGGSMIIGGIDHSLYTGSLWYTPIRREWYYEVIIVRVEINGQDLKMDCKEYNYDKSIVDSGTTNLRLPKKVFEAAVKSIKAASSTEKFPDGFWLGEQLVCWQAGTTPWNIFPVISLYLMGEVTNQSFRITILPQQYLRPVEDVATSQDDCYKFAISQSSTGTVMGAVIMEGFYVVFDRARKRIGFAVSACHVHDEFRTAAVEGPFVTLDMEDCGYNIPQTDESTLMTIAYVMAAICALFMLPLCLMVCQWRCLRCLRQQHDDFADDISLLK

The target in assay [1] is T1, Beta-secretase 1 (Homo sapiens, UniProt P56817). The experiment in a line: Inhibition of BACE1 assessed as amyloid beta secretion by cell based assay.
The target of assay [2] is T1, Beta-secretase 1. The assay is described as follows: Inhibition of human BACE1.

One may read the IC50 as the point on the concentration scale where inhibition reaches its midpoint. Take `CC[C@@H](CC(=O)NCC1CCCCC1)n1c(N)nc2cc(Cl)ccc21`: the concentration for half-maximal inhibition (IC50) at Beta-secretase 1 [1] and at Beta-secretase 1 [2] was 7 µM throughout.
